Values quoted from earlier work, collected in article PMC7246635, “Structure–Activity Relationship of RGD-Containing Cyclic Octapeptide and αvβ3 Integrin Allows for Rapid Identification of a New Peptide Antagonist” (International Journal of Molecular Sciences, 2020).

Chains of the proteins cited; added tags and fusions are not shown. Residues count along the entry.
UniProt P05106, 27-788 limits assumed: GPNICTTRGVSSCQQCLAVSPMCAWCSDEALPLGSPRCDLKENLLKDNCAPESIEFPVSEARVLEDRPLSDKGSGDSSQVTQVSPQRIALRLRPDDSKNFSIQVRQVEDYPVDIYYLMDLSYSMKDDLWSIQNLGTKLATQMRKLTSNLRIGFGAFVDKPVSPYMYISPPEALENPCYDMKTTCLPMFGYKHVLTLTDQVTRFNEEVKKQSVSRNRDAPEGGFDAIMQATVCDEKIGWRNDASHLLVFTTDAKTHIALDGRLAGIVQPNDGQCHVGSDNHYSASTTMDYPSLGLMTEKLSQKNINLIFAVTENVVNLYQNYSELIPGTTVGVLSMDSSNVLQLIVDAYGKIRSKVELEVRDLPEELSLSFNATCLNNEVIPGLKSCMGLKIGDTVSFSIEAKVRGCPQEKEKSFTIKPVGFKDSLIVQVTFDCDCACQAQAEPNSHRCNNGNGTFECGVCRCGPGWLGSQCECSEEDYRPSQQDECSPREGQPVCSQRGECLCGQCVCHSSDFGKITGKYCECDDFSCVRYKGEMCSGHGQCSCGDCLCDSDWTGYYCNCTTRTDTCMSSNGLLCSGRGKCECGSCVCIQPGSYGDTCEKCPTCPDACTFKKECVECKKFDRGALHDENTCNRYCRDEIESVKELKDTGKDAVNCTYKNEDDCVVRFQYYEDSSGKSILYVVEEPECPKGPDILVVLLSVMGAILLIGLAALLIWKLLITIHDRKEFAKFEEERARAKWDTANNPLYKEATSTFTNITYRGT
UniProt P06756, 31-889 limits assumed: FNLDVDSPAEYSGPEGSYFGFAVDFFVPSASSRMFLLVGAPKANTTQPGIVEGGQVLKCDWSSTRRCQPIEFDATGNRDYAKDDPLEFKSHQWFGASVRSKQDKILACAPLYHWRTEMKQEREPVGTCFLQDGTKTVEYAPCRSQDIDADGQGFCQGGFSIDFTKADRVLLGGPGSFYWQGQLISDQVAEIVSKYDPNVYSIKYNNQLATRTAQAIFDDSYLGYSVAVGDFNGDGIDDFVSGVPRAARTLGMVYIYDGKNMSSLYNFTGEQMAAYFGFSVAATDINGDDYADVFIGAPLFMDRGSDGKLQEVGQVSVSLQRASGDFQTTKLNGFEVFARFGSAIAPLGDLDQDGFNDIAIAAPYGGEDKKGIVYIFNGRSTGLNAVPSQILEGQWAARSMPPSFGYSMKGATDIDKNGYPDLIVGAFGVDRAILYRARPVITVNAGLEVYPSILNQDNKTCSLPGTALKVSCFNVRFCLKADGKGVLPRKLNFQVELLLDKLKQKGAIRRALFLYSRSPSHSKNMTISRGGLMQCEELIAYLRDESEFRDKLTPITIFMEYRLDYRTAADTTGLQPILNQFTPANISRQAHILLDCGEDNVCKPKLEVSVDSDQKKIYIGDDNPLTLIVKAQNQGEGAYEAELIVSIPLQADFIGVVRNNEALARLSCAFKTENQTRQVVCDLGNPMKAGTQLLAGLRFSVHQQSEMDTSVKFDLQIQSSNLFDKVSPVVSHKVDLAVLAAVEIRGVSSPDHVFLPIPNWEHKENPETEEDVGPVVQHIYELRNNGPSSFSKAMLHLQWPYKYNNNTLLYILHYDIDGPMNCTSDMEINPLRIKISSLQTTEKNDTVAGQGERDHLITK
UniProt P06756, 891-1048 partner limits assumed: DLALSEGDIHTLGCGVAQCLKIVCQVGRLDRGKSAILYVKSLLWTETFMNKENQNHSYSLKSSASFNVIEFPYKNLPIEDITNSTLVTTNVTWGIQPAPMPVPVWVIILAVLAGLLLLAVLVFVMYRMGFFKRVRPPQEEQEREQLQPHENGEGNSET

Target: αvβ3 integrin (Homo sapiens, UniProt P05106+P06756)
Settings: known IC50s from previous in vitro screening, binding to αvβ3 integrin; Table 3; cited from earlier work
Text: Targeting tumor cells or tumor vasculature by RGD-based strategies is a promising approach for delivering anticancer drugs or contrast agents for cancer therapy and diagnosis. RGD-based strategies include RGD peptide or peptidomimetic drugs, RGD-conjugates, and the grafting of the RGD peptide or peptidomimetic, as targeting ligand, at the surfa ... || (+ 4 further places)

N=C(N)NCCC[C@@H]1NC(=O)CNC(=O)[C@H](N)CSSC[C@H](C(N)=O)NC(=O)[C@@H](Cc2ccc3ccccc3c2)NC(=O)[C@@H](CC(=O)O)NC(=O)[C@H](CC(=O)O)NC(=O)CNC1=O
IC50: 130 nM
